Only a part of the results on these compounds is given; other tests are left out.
Tests used:
[1] = tested on: Cephalosporium acremonium (a high ceph C-producing mutant strain which also produces desacetyl ceph C); test: Shake flask fermentation, inhibitors added at day 4 (Example 1); format: cell-based; details: broth after six days
[2] = tested on: desacetylcephalosporin C production; test: Fermentors, additional phosphorous compounds (Example 7)
[3] = 600 ppm added at day 4 (96 hours)
[4] = 1600 ppm added at day 4 (96 hours)

With `CC(C)OP(OC(C)C)OC(C)C` the “Ceph C” value [1, 3] was 8995 µg/g, the “Des C/Total Ceph Nucleus (Ceph C + Des Ceph C)” value [1, 3] was 5.56% and the “Des Ceph C” value [1, 3] was 530 µg/g. The “Ceph C” value [1, 4] was 11,000 mcg/g, the “Des C/Total Ceph Nucleus (Ceph C + Des Ceph C)” value [1, 4] was 4.96% and the “Des Ceph C” value [1, 4] was 575 µg/g. The “inhibitory activity with respect to desacetylcephalosporin C production” value [2] was “exhibited inhibitory activity”.

— patent publication US4520101A (priority 1983, dated 1985)
